The text below walks through data of US20230174660A1, “USE OF A MULTIMERIC ANTI-DR5 BINDING MOLECULE IN COMBINATION WITH A CANCER THERAPY FOR TREATING CANCER” (IGM Biosciences, Inc., priority 2020, published 2023).

One test has as its system PANC1. The test is described as follows: Cell Titer Glo viability, Mab A + chemotherapeutic agent, Bliss synergy (Example 1). Conditions: combination with anti-DR5 IgM Mab A; PANC1, Pancreas Ductal Adenocarcinoma, exocrine; 72 hours.
For the next test, the system named is HT1080. Described as above. The note with it: combination with anti-DR5 IgM Mab A; HT1080, Connective tissue Fibrosarcoma; 72 hours.
Another test relates to NCIH508. Described as above. Conditions: combination with anti-DR5 IgM Mab A; NCIH508, Colorectal Caecum Adenocarcinoma; 72 hours.
For another test, the system named is OCI-LY7. The test is described as follows: Cell Titer Glo viability, Mab A + chemotherapeutic/targeted agent (Example 9).
The subject of a further test is U-937. The description is as above.

On to Oxaliplatin, for which the figures for the “Average Bliss score” value in the test with PANC1, with HT1080 and in the test on NCIH508 were 8.9, −1 and 0.75, respectively.

Consider `CC[C@]1(O)C[C@@H]2C[N@@](CCc3c([nH]c4ccccc34)[C@@](C(=O)OC)(c3cc4c(cc3OC)N(C=O)[C@H]3[C@@](O)(C(=O)OC)[C@H](OC(C)=O)[C@]5(CC)C=CCN6CC[C@]43[C@@H]65)C2)C1` [vincristine, Vincristine], for which the figures for the “Average Bliss score” value in the test on DOHH-2, in the test with OCI-LY7 and with U-937 were −3.7, −1.0 and 5.2, respectively.
